Earlier results, collected in patent US10294273B2, “Macrocyclic peptidomimetics for alpha-helix mimicry” (UNIVERSITY OF ROCHESTER, priority 2014, dated 2019).

Settings: Pazgier, Liu et al. 2009; cited from earlier work

In the case of “linear 12-mer peptide TSFAEYWNLLSP (SEQ ID NO: 2) isolated via phage display by Pazgier et al. (Engineered sequence) [PMI]”, the “efficacy in cell-based assays” value is listed as “ineffective”.
